Source: patent publication US7371365B2, “Methods for detecting parenchymal plaques in vivo” (Mayo Foundation for Medical Education and Research, priority 2000, dated 2008)

Columns and labels:
BBB [1] = details: cited from earlier work
BBB [2] = experiment: PS and Vp at the BBB, IV bolus injection in non-transgenic mice; details: for PS: Permeability coefficient-surface area product / Vp: Residual brain region blood volume: x ± SEM; for PS: Permeability coefficient-surface area product: 125I derivatives over 15 min, corrected for Vp; for Vp: Residual brain region blood volume: 131I derivatives given 15 sec prior to end
Method: PS and Vp Determination in Mice. […] Blood was sampled from the femoral artery at several intervals during the next 15 minutes. Whole blood was sampled directly, using heparinized micro-hematocrit capillary tubes and TCA extracted. The supernatant was separated from the pellet and both were counted in a gamma counter. The radioactivity in the pellet was expressed as a percentage of the total radioactivity found in both the pellet and supernatant. An aliquot of the peptide labeled with ^131I was then injected into the femoral vein 15 seconds prior to sacrifice of the animal to serve as a measure of residual plasma volume (Vp; μl/g). After collection of the final blood sample, the anesthetized animal was sacrificed. […] The permeability coefficient x surface area products (PS; 10^−6 ml/g/s) were then calculated using the Vp as a measure of residual plasma volume based on equations that have been discussed in detail elsewhere (Poduslo and Curran, supra (1996a); Poduslo and Curran, supra (1996b); Wengenack, et al., supra (1997); Poduslo, et al., supra (1998); Poduslo, et al., supra (2000); Poduslo, et al., supra (2001). Statistical evaluations of PS and Vp were performed using ANOVA followed by Bonferroni multiple comparisons.

insulin
PS value in rat cortex (BBB [1]): 1.578e-05 mL/g/s

putrescine-gadolinium-amyloid-β peptide [PUT-Gd-Aβ]
RI of PS: relative increase versus Aβ (BBB [2]; Brain Stem): 2.0 | RI of Vp: relative increase versus Aβ (BBB [2]; Brain Stem): 3.7 | PS: Permeability coefficient-surface area product (BBB [2]; Brain Stem): 125.8 ± 8.9 ml/g/s × 10^−6 | Vp: Residual brain region blood volume (BBB [2]; Brain Stem): 63.5 ± 3.6 µL/g | RI of PS: relative increase versus Aβ (BBB [2]; Caudate-Putamen): 1.5 | RI of Vp: relative increase versus Aβ (BBB [2]; Caudate-Putamen): 4.4 | PS: Permeability coefficient-surface area product (BBB [2]; Caudate-Putamen): 60.0 ± 9.0 ml/g/s × 10^−6 | Vp: Residual brain region blood volume (BBB [2]; Caudate-Putamen): 43.4 ± 2.2 µL/g | RI of PS: relative increase versus Aβ (BBB [2]; Cerebellum): 1.7 | RI of Vp: relative increase versus Aβ (BBB [2]; Cerebellum): 3.5 | PS: Permeability coefficient-surface area product (BBB [2]; Cerebellum): 113.3 ± 12.5 ml/g/s × 10^−6 | Vp: Residual brain region blood volume (BBB [2]; Cerebellum): 73.4 ± 3.7 µL/g | RI of PS: relative increase versus Aβ (BBB [2]; Cortex): 1.7 | RI of Vp: relative increase versus Aβ (BBB [2]; Cortex): 4.1 | PS: Permeability coefficient-surface area product (BBB [2]; Cortex): 91.3 ± 9.5 ml/g/s × 10^−6 | Vp: Residual brain region blood volume (BBB [2]; Cortex): 58.2 ± 2.7 µL/g | RI of PS: relative increase versus Aβ (BBB [2]; Hippocampus): 1.7 | RI of Vp: relative increase versus Aβ (BBB [2]; Hippocampus): 3.3 | PS: Permeability coefficient-surface area product (BBB [2]; Hippocampus): 84.2 ± 6.8 ml/g/s × 10^−6 | Vp: Residual brain region blood volume (BBB [2]; Hippocampus): 52.2 ± 3.3 µL/g | RI of PS: relative increase versus Aβ (BBB [2]; Thalamus): 1.6 | RI of Vp: relative increase versus Aβ (BBB [2]; Thalamus): 4.5 | PS: Permeability coefficient-surface area product (BBB [2]; Thalamus): 83.1 ± 12.5 ml/g/s × 10^−6 | Vp: Residual brain region blood volume (BBB [2]; Thalamus): 58.8 ± 2.6 µL/g | decrease in the PS values compared to PUT-Aβ (BBB [2]; different brain regions): 19-40% | fold increase in PS values compared to Aβ (BBB [2]; range over six brain regions): 1.5-2.0 fold | fold increase in Vp values compared to Aβ (BBB [2]; range over six brain regions): 3.3-4.5 fold
